Results on three molecules are retold here after PMC4197335, “Cancer-Selective Targeting of the NF-κB Survival Pathway with GADD45β/MKK7 Inhibitors” (Cancer Cell, 2014).

In the experiment the target is T1, GADD45β/MKK7 complex (Homo sapiens, UniProt O14733).
T1 construct: Full-length human (h)MKK7 was expressed as a protein fused to an N-terminal GST tag (GST-MKK7); made in house
T1 sequence (O14733 1-419): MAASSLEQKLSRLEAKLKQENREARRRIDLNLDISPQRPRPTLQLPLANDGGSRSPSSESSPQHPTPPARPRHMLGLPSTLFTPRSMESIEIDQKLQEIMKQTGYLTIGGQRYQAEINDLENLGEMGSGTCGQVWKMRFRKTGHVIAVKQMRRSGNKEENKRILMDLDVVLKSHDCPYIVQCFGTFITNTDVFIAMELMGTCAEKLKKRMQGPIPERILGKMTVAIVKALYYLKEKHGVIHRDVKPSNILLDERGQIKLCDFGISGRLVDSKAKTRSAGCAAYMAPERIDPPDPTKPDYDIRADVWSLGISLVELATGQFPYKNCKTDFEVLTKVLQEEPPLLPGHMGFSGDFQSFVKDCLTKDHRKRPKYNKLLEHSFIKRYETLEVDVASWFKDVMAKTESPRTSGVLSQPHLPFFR
The experiment can be described thus: ELISA GADD45β/MKK7 competition assay. It counts as binding. The conditions noted are these: Table S4; read-out: IC50s (ELISA). From the text: Additional details are provided in Supplemental Experimental Procedures.
(1:1,000) and the HRP chromogenic substrate, o -phenylenediamine (OPD). GST -coated wells wer e […]
The ELISA competition screen used f or the isolation of antagonists of the GADD45β /MKK7 […]
The library deconvolution strategy used for this screen was described previously […]
General information about this type of screens can be found elsewhere […]
Values were expressed as the percentage of inhibition of His6-hGADD45β binding to GST-hMKK7 relative to the binding measured in the absence of […]
Dose-response, ELISA GADD45β /MKK7 competition assays were carried out under similar […]
As part of the SAR analysis and lead optimization process, where appropriate, competitors were tested at a concentration up to 100 nM. In order to determine their stability in biolog ical f luids , peptides were incubated at the concentration of 10 µM in […]
calculated using at least 7 concentrations of peptide and def ined as the mean concentration of peptide […]
the absence of competitor. W here indicated, values were expressed as the percentage of inhibition of His 6 -hGADD45β binding to GST-hMKK7 relative to the binding measured in the absence of competitor.
GST was used as a control in all the experiments. […]
tetrapeptide used as negative control in some of the ELISA and cellular assays was as f ollows: z -DNC, z-T yr -Asp-His-Gln-NH 2 . […]
In general terms: In an ELISA, binding on a coated surface is turned into a signal by an enzyme label.
As for `CC(=O)N[C@H](Cc1ccc(O)cc1)C(=O)N[C@H](Cc1c[nH]cn1)C(=O)N[C@H](Cc1ccccc1)C(N)=O` [Ac-YHF-NH2], the IC50 was 0.7 nM.

Consider `CC(=O)N[C@H](Cc1ccc(O)cc1)C(=O)N1CCC[C@@H]1C(=O)N[C@H](Cc1ccccc1)C(N)=O` [Ac-YPF-NH2], for which the IC50 was 0.65 nM.

On to `CC(=O)N[C@H](Cc1ccc(O)cc1)C(=O)N[C@H](CCCNC(=N)N)C(=O)N[C@H](Cc1ccc(O)cc1)C(N)=O` [Ac-YRY-NH2], for which the IC50 came to 0.76 nM.
